Target: T1, VEGF (human recombinant VEGFA165); VEGF‐induced VEGFR‐2 activation in HUVECs (Homo sapiens, UniProt P15692)
T1 construct: purchased R&D Systems, Abingdon, UK
Experiment: Inhibition of VEGF‐induced VEGFR‐2 phosphorylation in HUVECs after pre‐incubating VEGF with polyphenol (Phospho‐VEGFR‐2 Tyr1175 ELISA);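 further: sandwich ELISA of VEGFR-2 phosphorylated at Tyr1175 in lysates of confluent HUVECs, with VEGF alone and DMSO vehicle (≤0.1%) as control incubations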
Format: cell-based
Settings: VEGF 25 ng/mL pre‐incubated 5 min with polyphenol, then HUVECs 5 min; phospho‐VEGFR‐2 ELISA; 95% confidence intervals in parentheses

Amino acid sequences for entries named in this document (tags omitted). Residues count along the entry.
UniProt P15692, 1-191 isoform P15692-4: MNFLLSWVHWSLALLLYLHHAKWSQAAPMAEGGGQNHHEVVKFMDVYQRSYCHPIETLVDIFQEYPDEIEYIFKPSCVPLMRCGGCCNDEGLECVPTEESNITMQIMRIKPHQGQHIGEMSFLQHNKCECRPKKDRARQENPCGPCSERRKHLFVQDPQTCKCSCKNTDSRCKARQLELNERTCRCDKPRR

Q: For catechin gallate [CG], which “IC50 (μM)” value is on record?
A: 0.094 (0.074–0.097) μM
